Experimental data: patent US20260108465A1 (Belhaven BioPharma Inc., priority 2024, published 2026)

Test: Study 101: plasma epinephrine pharmacokinetics
Format: in vivo, human
Set-up: unit not given beside the values
Settings: 0.5 mg IM
Description: Each patient was provided each treatment of the trial with 72-hour washout periods between each treatment, beginning with a 3.5 mg intranasal dose, followed by a 0.3 mg intramuscular dose, followed by a 0.5 mg intramuscular dose, and concluding with a 5.5 mg intranasal dose, with a safety follow-up performed 3 to 5 days after the final dose was administered. The primary endpoints of the study were pharmacokinetic measurements and assessments of comparative bioavailability, while the secondary endpoints were safety concerns and pharmacodynamic assessments.

Cmax (GeoMean): 382.3
Structure (SMILES): CNC[C@H](O)c1ccc(O)c(O)c1 [Epinephrine IM, epinephrine]
